Sequences of proteins named here, by UniProt entry; tags and fusion partners are left off.
UniProt Q15858, whole entry: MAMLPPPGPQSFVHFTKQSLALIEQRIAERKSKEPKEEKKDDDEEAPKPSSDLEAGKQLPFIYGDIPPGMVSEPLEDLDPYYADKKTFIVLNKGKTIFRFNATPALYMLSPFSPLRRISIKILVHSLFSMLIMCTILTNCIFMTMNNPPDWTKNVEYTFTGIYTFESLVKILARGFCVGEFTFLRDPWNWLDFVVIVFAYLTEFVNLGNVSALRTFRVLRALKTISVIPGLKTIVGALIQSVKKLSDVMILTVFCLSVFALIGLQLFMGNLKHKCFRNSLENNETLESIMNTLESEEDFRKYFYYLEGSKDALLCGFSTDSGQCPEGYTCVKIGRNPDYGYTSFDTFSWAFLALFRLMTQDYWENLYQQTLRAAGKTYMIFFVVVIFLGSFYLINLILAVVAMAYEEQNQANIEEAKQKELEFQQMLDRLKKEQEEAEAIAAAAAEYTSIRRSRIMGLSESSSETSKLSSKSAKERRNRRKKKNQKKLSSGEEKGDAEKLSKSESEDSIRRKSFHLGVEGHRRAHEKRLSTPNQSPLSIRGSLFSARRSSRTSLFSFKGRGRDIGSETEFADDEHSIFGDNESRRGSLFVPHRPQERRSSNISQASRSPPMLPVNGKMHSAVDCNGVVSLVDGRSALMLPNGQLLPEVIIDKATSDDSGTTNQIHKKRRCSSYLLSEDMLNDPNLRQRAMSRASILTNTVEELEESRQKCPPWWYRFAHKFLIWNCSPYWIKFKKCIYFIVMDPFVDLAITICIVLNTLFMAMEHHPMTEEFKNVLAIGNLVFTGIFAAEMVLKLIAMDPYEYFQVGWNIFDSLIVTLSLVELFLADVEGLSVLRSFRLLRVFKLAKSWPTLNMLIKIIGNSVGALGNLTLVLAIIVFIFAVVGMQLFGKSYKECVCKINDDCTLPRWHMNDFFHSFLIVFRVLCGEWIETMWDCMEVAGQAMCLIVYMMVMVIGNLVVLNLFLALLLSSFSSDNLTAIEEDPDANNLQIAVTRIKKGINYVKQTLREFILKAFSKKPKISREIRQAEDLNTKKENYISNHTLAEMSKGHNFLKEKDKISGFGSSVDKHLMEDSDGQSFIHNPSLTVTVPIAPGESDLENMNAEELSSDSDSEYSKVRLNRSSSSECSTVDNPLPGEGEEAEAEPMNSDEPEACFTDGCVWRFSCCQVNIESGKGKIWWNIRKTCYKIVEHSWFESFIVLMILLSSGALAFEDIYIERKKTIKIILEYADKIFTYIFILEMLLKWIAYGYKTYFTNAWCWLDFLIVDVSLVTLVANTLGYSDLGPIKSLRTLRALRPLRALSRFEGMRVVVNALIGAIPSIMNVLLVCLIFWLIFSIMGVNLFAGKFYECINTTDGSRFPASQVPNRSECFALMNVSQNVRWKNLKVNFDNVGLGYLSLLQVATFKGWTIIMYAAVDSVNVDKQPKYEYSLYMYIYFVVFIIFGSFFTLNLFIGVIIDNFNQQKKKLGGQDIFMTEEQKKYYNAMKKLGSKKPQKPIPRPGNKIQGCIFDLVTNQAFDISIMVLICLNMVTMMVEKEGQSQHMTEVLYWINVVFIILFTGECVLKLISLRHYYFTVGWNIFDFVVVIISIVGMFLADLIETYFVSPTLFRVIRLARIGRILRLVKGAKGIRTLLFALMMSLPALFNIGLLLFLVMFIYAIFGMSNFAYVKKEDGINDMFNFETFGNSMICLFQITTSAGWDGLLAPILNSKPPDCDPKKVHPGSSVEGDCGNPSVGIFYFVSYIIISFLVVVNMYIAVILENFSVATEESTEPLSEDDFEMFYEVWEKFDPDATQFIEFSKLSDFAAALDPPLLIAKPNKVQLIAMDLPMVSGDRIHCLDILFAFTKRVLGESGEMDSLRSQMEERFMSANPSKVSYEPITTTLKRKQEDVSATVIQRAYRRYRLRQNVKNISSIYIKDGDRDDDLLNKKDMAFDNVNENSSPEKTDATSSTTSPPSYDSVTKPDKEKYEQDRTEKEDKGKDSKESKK
UniProt Q14524, whole entry: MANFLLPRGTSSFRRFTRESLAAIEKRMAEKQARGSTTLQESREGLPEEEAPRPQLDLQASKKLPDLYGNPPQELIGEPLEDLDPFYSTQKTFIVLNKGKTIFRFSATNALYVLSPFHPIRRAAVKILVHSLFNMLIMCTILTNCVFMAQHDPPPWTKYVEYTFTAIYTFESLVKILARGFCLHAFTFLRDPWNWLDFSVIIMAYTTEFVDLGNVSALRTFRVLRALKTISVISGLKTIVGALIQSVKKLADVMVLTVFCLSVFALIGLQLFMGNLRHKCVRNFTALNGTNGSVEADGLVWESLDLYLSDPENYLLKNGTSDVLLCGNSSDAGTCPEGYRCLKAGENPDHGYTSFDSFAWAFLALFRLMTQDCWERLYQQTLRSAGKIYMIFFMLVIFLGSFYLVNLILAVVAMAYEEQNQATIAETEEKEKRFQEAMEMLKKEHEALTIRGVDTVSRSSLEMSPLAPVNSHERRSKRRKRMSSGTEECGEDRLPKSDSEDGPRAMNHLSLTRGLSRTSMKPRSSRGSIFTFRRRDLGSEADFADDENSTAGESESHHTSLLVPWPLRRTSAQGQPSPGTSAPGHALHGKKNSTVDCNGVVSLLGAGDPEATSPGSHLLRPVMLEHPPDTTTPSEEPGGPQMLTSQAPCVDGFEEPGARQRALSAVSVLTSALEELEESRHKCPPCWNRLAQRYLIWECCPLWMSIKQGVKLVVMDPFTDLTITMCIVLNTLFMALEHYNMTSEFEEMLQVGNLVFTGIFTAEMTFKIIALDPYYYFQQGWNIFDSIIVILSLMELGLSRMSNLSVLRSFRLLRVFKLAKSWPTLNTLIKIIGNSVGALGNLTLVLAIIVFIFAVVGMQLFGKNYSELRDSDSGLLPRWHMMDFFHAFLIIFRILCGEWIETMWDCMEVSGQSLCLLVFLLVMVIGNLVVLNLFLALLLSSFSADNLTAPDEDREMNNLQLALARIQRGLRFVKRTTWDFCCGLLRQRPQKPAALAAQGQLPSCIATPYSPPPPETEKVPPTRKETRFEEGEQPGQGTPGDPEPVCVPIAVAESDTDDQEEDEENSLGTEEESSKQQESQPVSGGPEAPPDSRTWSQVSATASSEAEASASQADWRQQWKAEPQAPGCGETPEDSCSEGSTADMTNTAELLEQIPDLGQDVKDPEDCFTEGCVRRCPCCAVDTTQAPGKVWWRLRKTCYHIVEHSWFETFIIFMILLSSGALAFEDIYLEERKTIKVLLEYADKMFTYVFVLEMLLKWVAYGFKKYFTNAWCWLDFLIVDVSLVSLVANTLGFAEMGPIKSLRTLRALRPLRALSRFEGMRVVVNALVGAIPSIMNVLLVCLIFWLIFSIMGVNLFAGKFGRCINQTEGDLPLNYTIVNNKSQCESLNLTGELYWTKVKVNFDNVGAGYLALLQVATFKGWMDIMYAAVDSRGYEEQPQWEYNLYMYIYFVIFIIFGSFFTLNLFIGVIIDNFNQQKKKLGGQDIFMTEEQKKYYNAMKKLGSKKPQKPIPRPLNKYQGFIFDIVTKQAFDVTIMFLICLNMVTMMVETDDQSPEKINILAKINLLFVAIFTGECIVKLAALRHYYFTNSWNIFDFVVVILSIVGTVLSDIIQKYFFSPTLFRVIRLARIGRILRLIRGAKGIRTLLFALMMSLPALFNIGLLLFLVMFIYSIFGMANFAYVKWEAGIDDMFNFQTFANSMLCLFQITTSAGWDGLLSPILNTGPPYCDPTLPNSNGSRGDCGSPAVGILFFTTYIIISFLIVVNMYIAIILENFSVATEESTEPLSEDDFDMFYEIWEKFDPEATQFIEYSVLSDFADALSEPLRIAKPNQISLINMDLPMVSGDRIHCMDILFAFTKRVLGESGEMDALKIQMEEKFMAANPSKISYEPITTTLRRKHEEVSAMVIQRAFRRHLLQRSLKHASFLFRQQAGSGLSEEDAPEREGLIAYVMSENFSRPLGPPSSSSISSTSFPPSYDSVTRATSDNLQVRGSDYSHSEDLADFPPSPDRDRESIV

In ChEMBL document CHEMBL3352194, “The discovery of benzenesulfonamide-based potent and selective inhibitors of voltage-gated sodium channel Na(v)1.7” (Bioorg Med Chem Lett, 2014):

Experiments:
[1] = target: Sodium channel protein type 9 subunit alpha (Homo sapiens, UniProt Q15858); test: Inhibition of human Nav1.7 expressed in HEK cells assessed as reduction in sodium current at -60 mV holding potential by PatchXpress platform based whole cell patch clamp electrophysiological assay; design: species or system HEK293
[2] = target: Sodium channel protein type 5 subunit alpha (Homo sapiens, UniProt Q14524); test: Inhibition of human Nav1.5 expressed in HEK cells assessed as reduction in sodium current at -60 mV holding potential by PatchXpress platform based whole cell patch clamp electrophysiological assay; design: species or system HEK293

Compound	IC50 [1] [µM]	further results
O=S(=O)(Nc1ncns1)c1cc(F)c(OC[C@@H]2CNCC[C@H]2c2ccc(Cl)cc2)cc1F		IC50 ([2]; hek293): > 10 µM
O=S(=O)(Nc1ncns1)c1cc(F)c(OC[C@@H]2CNCC[C@H]2c2ccc(Cl)cc2)cc1F (racemic)		IC50 [2]: > 10 µM
O=S(=O)(Nc1ccncn1)c1cc(F)c(OC[C@@H]2CNCC[C@H]2c2ccc(Cl)cc2)cc1F (relative stereo)	0.033	
O=S(=O)(Nc1ncns1)c1cc(F)c(OC[C@H]2CNCC[C@@H]2c2ccc(Cl)c(F)c2)cc1F (relative stereo)	0.0009	

More lines, main results first:

IC50 [1] [µM]	Compound	further results
0.0026	O=S(=O)(Nc1ncns1)c1cc(F)c(OC[C@H]2CNCC[C@@H]2c2ccc(F)c(F)c2)cc1F (relative stereo)	
0.011	O=S(=O)(Nc1ncc(F)cn1)c1cc(F)c(OC[C@H]2CNCC[C@@H]2c2ccc(Cl)cc2)cc1F	
0.023	O=S(=O)(Nc1ncc(Cl)s1)c1cc(F)c(OC[C@@H]2CNCC[C@H]2c2ccc(Cl)cc2)cc1F (relative stereo)	
